According to US5089479A, “Adhesion of Mycoplasma pneumoniae and Mycoplasma hominus to sulfatide” (priority 1988, dated 1992):

Tested on: M. pneumoniae
Assay: M. pneumoniae adhesion to immobilized glycoproteins adsorbed on plastic
Assay type: binding, Mycoplasma pneumoniae strain M129
Conditions: for amount of glycoprotein coated that promotes adhesion: coated wells
Description: Glycoproteins dissolved in 0.01 M sodium phosphate buffer, pH 7.4, containing 150 mM NaCl, 1 mM CaCl2, and 0.01% NaN3 were adsorbed onto plastic polyvinylchloride […] microtiter plates by incubation for 16 hours at 4° C. The unbound proteins were removed, and the wells were filled with tris-BSA and incubated for 30 minutes at room temperature. The wells were rinsed with RPMI1640 containing 25 mM HEPES, pH 7.3, and 1% bovine serum albumin. M. pneumoniae strain M129 labelled with [^3 H]-palmitate were dispersed in RPMI-BSA by passing four times through a 26 gauge needle, and 50 μl of the suspension was applied to the wells. After incubation for 60 minutes at 37° C., the wells were washed five times with saline and the labelled M. pneumoniae bound to the proteins were quantified by scintillation counting in Aquasol. […]
Adhesion of labelled M. pneumoniae to WiDr cells on glass cover slips was determined as described previously. For inhibition studies, dextran sulfate and 3'-sialyllactose were dissolved in RPMI-BSA and the pH was adjusted to 7.4 with NaOH. The inhibitors were added to wells containing washed cover slips with attached WiDr cells or blank cover slips preincubated in medium or tris-BSA. Labelled M. pneumoniae were added immediately and incubated with slow rocking for sixty minutes at 37° C. After the coverslips were washed by dipping six times in saline, bound M. pneumoniae were determined by scintillation counting in Aquasol. […] After washing to remove the unbound organisms, the bound mycoplasma were determined by scintillation counting. Binding to uncoated wells was 3% of the applied radioactivity.
FIG. 7 illustrates the effect of neuraminidase treatment on M. pneumoniae binding to immobilized glycoproteins. […] [^3 H]-labelled M. pneumoniae binding was determined as described above.
^1 Binding of [^3 H]-M. pneumoniae was determined to polyvinyl […]
proteins. Relative binding activities of the proteins were determined by […]

Substance	amount of glycoprotein coated that promotes adhesion	Relative binding activity (relative to fetuin = 1.0, from amount for half maximal binding, mean of 2 or 3 experiments)
hCG α-subunit: α-subunit of human chorionic gonadotropin	less than 10 ng	0.8
hCG: human chorionic gonadotropin	less than 10 ng	–
